Measured values reported in patent US20250195530A1, “POLQ INHIBITORS” (ASTRAZENECA AB, priority 2022, published 2025).

The chains behind the UniProt entries cited, without tags or fusion partners. Residues count along the entry.
UniProt O75417, 1780-2590: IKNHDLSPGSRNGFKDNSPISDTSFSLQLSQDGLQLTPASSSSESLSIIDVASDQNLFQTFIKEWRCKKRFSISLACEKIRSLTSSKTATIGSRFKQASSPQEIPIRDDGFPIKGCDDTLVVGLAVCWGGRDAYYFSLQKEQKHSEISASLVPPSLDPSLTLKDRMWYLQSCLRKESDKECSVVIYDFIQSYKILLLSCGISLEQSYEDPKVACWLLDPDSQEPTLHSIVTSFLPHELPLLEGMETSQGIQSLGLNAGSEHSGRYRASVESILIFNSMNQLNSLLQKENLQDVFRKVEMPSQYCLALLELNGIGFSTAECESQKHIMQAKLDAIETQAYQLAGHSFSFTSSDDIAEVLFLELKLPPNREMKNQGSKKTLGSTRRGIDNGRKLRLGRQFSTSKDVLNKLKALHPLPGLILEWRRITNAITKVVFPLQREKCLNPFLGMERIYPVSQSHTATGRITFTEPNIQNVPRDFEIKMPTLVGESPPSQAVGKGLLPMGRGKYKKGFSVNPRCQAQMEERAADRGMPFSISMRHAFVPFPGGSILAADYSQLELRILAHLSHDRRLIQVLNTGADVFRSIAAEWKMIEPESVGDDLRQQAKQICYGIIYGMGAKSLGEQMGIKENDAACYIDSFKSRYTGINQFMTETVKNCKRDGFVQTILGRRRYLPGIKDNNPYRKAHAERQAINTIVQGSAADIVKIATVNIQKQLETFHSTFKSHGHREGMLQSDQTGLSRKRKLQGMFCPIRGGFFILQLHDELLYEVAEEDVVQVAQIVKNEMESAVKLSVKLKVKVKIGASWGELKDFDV

Target: isolated polymerase domain (I1780-V2590) of DNA polymerase theta (Polθ) (Homo sapiens (Human), UniProt O75417)
Assay: biochemical

## C#CCNC(=O)COc1ccc(-c2nc3c(OC4(C)CC4)ncnc3n2Cc2cc(C)ccn2)c(Cl)c1 [Example T266, 2-(3-chloro-4-(6-(1-methylcyclopropoxy)-9-((4-methylpyridin-2-yl)methyl)-9H-purin-8-yl)phenoxy)-N-(prop-2-yn-1-yl)acetamide]
  IC50: 6.31 nM

## CC1(Oc2ncnc3c2nc(-c2ccc(OCCCC(=O)NS(C)(=O)=O)cc2Cl)n3Cc2cccc(Cl)c2)CC1 [Example T326, 4-(3-chloro-4-(9-(3-chlorobenzyl)-6-(1-methylcyclopropoxy)-9H-purin-8-yl)phenoxy)-N-(methylsulfonyl)butanamide]
  IC50: 3.16 nM

## Cc1ccc(Cl)cc1Cn1c(-c2ccc(OCCC(C)C(=O)O)cc2Cl)nc2c(OC3(C)CC3)ncnc21 (racemic) [Example U36, 4-(3-chloro-4-(9-(5-chloro-2-methylbenzyl)-6-(1-methylcyclopropoxy)-9H-purin-8-yl)phenoxy)-2-methylbutanoic acid]
  IC50: 6.31 nM

## Cc1ccnc(Cn2c(-c3ccc(OCCN4CCNCC4)cc3Cl)nc3c(OC4(C)CC4)ncnc32)c1C [Example T597, 8-(2-chloro-4-(2-(piperazin-1-yl)ethoxy)phenyl)-9-((3,4-dimethylpyridin-2-yl)methyl)-6-(1-methylcyclopropoxy)-9H-purine]
  IC50: 20 nM

## Cc1ccnc(Cn2c(-c3ccc(OCC(=O)N4CC[C@@H](O)C4)cc3Cl)nc3c(OC4(C)CC4)ncnc32)c1 [Example T473, (R)-2-(3-chloro-4-(6-(1-methylcyclopropoxy)-9-((4-methylpyridin-2-yl)methyl)-9H-purin-8-yl)phenoxy)-1-(3-hydroxypyrrolidin-1-yl)ethan-1-one]
  IC50: 6.31 nM

## Cc1ccnc(Cn2c(-c3ccc(OCCN4CCNCC4=O)cc3Cl)nc3c(OC4(C)CC4)ncnc32)c1 [Example T498, 1-(2-(3-chloro-4-(6-(1-methylcyclopropoxy)-9-((4-methylpyridin-2-yl)methyl)-9H-purin-8-yl)phenoxy)ethyl)piperazin-2-one]
  IC50: 6.31 nM

## Cc1ccnc(Cn2c(-c3ccc(OC4CCCNCC4)cc3Cl)nc3c(OC4(C)CC4)ncnc32)c1 (single isomer, unassigned) [Example T509, 8-(4-(azepan-4-yloxy)-2-chlorophenyl)-6-(1-methylcyclopropoxy)-9-((4-methylpyridin-2-yl)methyl)-9H-purine]
  IC50: 3.98 nM

## CC1(Oc2ncnc3c2nc(-c2ccc(CC(N)=O)cc2Cl)n3Cc2cc(F)ccc2C#N)CC1 [Example T79, 2-(3-chloro-4-(9-(2-cyano-5-fluorobenzyl)-6-(1-methylcyclopropoxy)-9H-purin-8-yl)phenyl)acetamide]
  IC50: 10 nM

## Cc1ccnc(Cn2c(-c3ccc(OCCNC(=O)CO)cc3Cl)nc3c(OC4(C)CC4)ncnc32)c1 [Example T227, N-(2-(3-chloro-4-(6-(1-methylcyclopropoxy)-9-((4-methylpyridin-2-yl)methyl)-9H-purin-8-yl)phenoxy)ethyl)-2-hydroxyacetamide]
  IC50: 5.01 nM

## Cc1ccnc(Cn2c(-c3ccc(OCC(=O)N4C[C@@H](O)[C@H](F)C4)cc3Cl)nc3c(OC4(C)CC4)ncnc32)c1 [Example T423, 2-(3-chloro-4-(6-(1-methylcyclopropoxy)-9-((4-methylpyridin-2-yl)methyl)-9H-purin-8-yl)phenoxy)-1-((3R,4R)-3-fluoro-4-hydroxypyrrolidin-1-yl)ethan-1-one]
  IC50: 6.31 nM

## COc1ccc(Cl)cc1Cn1c(-c2cccc(OCC[C@H](C)C(=O)O)c2Cl)nc2c(OC3(C)CC3)ncnc21 [Example U73, (S)-4-(2-chloro-3-(9-(5-chloro-2-methoxybenzyl)-6-(1-methylcyclopropoxy)-9H-purin-8-yl)phenoxy)-2-methylbutanoic acid]
  IC50: 3.16 nM

## Cc1ccnc(Cn2c(-c3ccc(N4CCN5CCC[C@H]5C4)cc3Cl)nc3c(OC4(C)CC4)ncnc32)c1 [Example T585, (S)-8-(2-chloro-4-(hexahydropyrrolo[1,2-a]pyrazin-2(1H)-yl)phenyl)-6-(1-methylcyclopropoxy)-9-((4-methylpyridin-2-yl)methyl)-9H-purine]
  IC50: 6.31 nM
